The experiment has as its target T1, PI3Kγ (Homo sapiens, UniProt P48736).
T1 construct: purchased BPS Bioscience, San Diego, CA
The experiment can be described thus: PI3K enzyme inhibition assay (ADP-Glo), PI3Kγ. It is filed as biochemical. Particulars: mean ± SD of three experiments. For orientation: ADP-Glo turns the ADP formed in a reaction into a luminescent signal.

Amino acid sequences for entries named in this document (tags omitted). A change or cut given only in a name is not applied to a line headed by its entry.
UniProt P48736: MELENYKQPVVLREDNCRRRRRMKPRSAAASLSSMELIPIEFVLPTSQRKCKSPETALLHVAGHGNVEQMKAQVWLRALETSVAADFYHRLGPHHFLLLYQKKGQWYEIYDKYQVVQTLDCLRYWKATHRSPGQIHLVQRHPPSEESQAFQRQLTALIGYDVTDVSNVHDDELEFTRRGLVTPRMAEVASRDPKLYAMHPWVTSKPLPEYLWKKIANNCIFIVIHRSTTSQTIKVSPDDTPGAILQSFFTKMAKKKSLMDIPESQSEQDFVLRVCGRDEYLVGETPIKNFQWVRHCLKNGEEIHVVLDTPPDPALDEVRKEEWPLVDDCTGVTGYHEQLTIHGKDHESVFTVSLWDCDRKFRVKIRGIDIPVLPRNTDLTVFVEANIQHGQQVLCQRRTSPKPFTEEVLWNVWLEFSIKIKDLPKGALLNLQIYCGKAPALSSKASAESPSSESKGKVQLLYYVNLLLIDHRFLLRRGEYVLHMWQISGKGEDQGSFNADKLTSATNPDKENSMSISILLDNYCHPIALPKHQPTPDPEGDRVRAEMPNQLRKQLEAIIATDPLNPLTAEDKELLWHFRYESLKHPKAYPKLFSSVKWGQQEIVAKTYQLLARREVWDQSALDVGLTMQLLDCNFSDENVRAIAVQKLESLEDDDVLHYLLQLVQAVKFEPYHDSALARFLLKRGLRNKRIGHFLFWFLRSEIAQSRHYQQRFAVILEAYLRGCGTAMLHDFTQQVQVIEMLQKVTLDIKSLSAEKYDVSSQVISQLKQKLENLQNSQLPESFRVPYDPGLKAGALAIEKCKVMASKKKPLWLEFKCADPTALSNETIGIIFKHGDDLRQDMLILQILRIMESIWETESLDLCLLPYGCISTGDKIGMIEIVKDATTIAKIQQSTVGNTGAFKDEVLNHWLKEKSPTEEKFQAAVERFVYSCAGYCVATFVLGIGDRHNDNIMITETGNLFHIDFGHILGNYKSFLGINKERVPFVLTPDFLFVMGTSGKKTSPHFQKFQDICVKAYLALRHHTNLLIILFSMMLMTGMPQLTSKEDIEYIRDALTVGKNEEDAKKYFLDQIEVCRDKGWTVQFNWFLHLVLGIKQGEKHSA

Take `O=c1cc(N2CCOCC2)oc2c(-c3ccccc3)cccc12` [LY294002, reference compound]: the IC50 (usually the concentration that gives 50% inhibition) stood at 15.7 ± 0.81 µM.
